Patent US6303751A, “Human metabotropic glutamate receptor and related DNA compounds” (Eli Lilly and Company, priority 1995, dated 2001)

By UniProt entry, the sequences of proteins in these tests, tags left out. Residues count along the entry.
UniProt Q13255, 19-1194 S593P/S993P: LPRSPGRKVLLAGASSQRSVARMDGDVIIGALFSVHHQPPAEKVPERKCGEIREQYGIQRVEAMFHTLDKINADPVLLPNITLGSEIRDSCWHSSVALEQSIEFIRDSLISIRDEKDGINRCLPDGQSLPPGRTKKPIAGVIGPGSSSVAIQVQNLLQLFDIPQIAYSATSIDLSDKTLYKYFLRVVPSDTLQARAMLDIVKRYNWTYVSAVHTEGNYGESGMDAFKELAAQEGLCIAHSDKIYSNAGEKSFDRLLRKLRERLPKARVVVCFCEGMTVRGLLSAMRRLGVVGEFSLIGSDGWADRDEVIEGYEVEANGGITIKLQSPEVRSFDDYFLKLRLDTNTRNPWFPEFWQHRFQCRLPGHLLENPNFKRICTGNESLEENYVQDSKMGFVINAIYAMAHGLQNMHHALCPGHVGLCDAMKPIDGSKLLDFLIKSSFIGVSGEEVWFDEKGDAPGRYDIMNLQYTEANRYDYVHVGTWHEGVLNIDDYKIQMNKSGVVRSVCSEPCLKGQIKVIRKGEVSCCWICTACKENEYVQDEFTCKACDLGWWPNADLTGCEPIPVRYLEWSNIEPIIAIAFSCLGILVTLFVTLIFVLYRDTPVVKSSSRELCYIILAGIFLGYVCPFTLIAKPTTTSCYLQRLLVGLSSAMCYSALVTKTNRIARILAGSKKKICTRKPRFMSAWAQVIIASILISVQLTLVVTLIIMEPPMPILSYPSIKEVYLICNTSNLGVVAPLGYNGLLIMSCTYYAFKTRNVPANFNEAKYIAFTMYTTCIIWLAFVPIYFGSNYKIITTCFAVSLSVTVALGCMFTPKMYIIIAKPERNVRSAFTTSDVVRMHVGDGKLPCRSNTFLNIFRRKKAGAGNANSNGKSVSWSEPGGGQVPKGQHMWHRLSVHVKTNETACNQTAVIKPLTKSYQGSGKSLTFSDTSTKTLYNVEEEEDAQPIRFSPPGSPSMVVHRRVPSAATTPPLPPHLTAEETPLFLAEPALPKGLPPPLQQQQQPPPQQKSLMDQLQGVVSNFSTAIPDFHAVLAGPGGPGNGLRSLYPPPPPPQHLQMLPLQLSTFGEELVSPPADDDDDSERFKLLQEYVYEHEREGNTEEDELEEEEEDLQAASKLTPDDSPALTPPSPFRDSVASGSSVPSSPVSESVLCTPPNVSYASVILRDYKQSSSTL

Biological target: T1, HSmGluR1 receptor (human metabotropic glutamate receptor) expressed in Xenopus oocytes (Homo sapiens, UniProt Q13255)
T1 construct: RNA transcripts encoding the HSmGluR1 receptor were produced by enzymatic transcription from pRS117; expressed in transfected cells; host or cells: Xenopus laevis oocytes injected with in vitro transcribed RNA from pRS117
Assay: Electrophysiological recording of HSmGluR1 receptor expressed in Xenopus oocytes
Type: cell-based

In the case of `N[C@@H](Cn1oc(=O)[nH]c1=O)C(=O)O` [quisqualate], the EC50 is reported as 0.4 µM.
